Measurements: PMC10481538, “Bioanalytical method validation and application to a phase 1, double-blind, randomized pharmacokinetic trial of a standardized Centella asiatica (L.) Urban water extract product in healthy older adults” (Frontiers in Pharmacology, 2023)
Where two headings read alike, the source gives them in different places.

Columns and labels:
[1] = Analyte storage stability in human urine; conditions: low concentration
[2] = encapsulated ECa 233, healthy adults; ref Songvut et al., 2019; cited from earlier work
[3] = n = 7, mean (SEM)
Protocol: To each sample of participant plasma or urine, A. aerogenes sulfatase (2.5 µL; 10–20 units/mL), and E. coli glucuronidase (2.5 µL; ∼5,000–50,000 units/mL) were used to release the analytes from their sulfate and β-D-glucuronic acid esters (Phase II metabolites). For calibration and validation samples, aqueous glycerol (5 µL) was added to mimic the enzymatic hydrolysis. For all analyses, 1% ascorbic acid (10 µL) was added prior to sample work up to limit oxidation. Samples were incubated (37°C) for 20 min and placed on ice to halt enzymatic activity. […] The supernatant was filtered (0.22 µm spinfilter) at 10,000 g for 5 min at 4°C and used for analysis. To optimize peak shape during analysis, the concentration of organic solvent (sample filtrate) was adjusted to a 60:40 ratio with HPLC grade water for TT analysis and a 90:10 ratio with 1% aqueous formic acid for CQA analysis.
HPLC-MS/MS was performed at the Oregon Health & Science University’s (OHSU) Bioanalytical Shared Resource/Pharmacokinetics Core (Portland, OR, United States). […]
Sample preparation and analysis: Plasma and urine sample preparation and analyte quantification by LC-MS/MS were performed in duplicate for each time point and visit (Sections 2.2–2.4). […]

Asiaticoside
Stability, percent of nominal concentration ([1]; condition 1 long-term storage at −80°C): 173% | Stability, percent of nominal concentration ([1]; condition 3 overnight storage at 4°C): 91% | Tmax [2]: 1 to 2 h | Total urinary excretion (12 hr) ([3]; single oral 2 g CAW (CAP)): 20.68 (6.7) µg | Total urinary excretion (12 hr) ([3]; single oral 4 g CAW (CAP)): 18.6 (4.5) µg
